Data on one compound can be found in patent publication US8138187B2, “Substituted heteroaryl derivatives” (Gruenenthal GmbH, priority 2006, dated 2012).

Sequences of proteins named here, by UniProt entry; tags and fusion partners are left off.
UniProt P35372, whole entry: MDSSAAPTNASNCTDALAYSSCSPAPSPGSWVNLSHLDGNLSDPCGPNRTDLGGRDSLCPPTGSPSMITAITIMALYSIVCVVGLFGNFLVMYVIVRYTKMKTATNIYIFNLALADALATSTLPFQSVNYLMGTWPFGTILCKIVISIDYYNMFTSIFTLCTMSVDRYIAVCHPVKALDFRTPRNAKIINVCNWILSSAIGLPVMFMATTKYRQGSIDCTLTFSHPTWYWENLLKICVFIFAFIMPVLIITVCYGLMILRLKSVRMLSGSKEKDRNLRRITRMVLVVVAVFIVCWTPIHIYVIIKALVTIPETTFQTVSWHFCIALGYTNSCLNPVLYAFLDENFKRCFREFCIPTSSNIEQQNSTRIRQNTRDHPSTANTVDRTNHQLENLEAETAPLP
UniProt P41146, whole entry: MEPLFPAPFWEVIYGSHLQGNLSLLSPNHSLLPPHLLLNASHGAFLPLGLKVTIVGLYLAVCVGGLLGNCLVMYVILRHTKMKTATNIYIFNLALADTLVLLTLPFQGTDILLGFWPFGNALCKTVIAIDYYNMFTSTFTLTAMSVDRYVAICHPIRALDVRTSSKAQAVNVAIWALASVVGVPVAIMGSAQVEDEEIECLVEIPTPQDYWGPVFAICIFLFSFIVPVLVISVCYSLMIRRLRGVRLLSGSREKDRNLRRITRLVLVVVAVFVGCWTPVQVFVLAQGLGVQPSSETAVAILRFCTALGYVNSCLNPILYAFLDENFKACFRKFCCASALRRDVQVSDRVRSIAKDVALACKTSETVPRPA

For test [1], the target named is human μ opiate receptor (Homo sapiens, UniProt P35372). The experiment in a line: μ binding, displacement of [3H]-naloxone. The settings on record: read-out: Ki [μM] (μ); CHO-K1 membranes expressing human μ opiate receptor; Cheng-Prusoff.
Test [2] addresses ORL1 receptor (Homo sapiens, UniProt P41146). The experiment in a line: ORL1 receptor binding assay with 3H-nociceptin/orphanin FQ. Particulars: 1 μM test compound; membranes from recombinant CHO-ORL1 cells. Here is the method: Measurement of the ORL1 Binding
The compounds according to the invention were investigated in a receptor binding assay with ^3H-nociceptin/orphanin FQ with membranes from recombinant CHO-ORL1 cells. This test system was conducted in accordance with the method described by Ardati et al. (Mol. Pharmacol., 51, 1997, S. 816-824). The concentration of ^3H-nociceptin/orphanin FQ in these experiments was 0.5 nM. The binding assays were carried out with in each case 20 μg of membrane protein per 200 μl batch in 50 mM hepes, pH 7.4, 10 mM MgCl2 and 1 mM EDTA. The binding to the ORL1 receptor was determined using in each case 1 mg of WGA-SPA beads (Amersham-Pharmacia, Freiburg) by incubation of the batch at RT for one hour and subsequent measurement in a Trilux scintillation counter (Wallac, Finland). The affinity is stated in Table 1 as the nanomolar Ki value in or % inhibition at c=1 μM.

Consider `CN1CCN(CCc2c(C3CCC(c4ccccc4)(N(C)C)CC3)[nH]c3ccccc23)CC1` (centres unmarked), for which, in test [1], the inhibition constant Ki was found to be 0.0003 µM. The “% inhibition (ORL1) at 1 μM” value in test [2] turned out to be 99%.

For orientation: Ki means the dissociation constant of the complex between target and ligand, obtained from inhibition or displacement.
